Data: ChEMBL document CHEMBL3352089 (J Med Chem, 2014)

How the values were obtained:
Assay type in all cases: cell-based
Settings in all cases: read-out: Activity
[1] = Cytotoxicity against human HepG2 cells assessed as cell viability at 1 uM after 4 hrs by Cell-Titer Glo assay
[2] = Cytotoxicity against human HepG2 cells assessed as cell viability at 10 uM after 4 hrs by Cell-Titer Glo assay
[3] = Cytotoxicity against human HepG2 cells assessed as cell viability at 100 uM after 4 hrs by Cell-Titer Glo assay
[4] = Cytotoxicity against human HepG2 cells assessed as cell viability at 1 uM after 24 hrs by Cell-Titer Glo assay

Cc1ccc(NC(=O)c2ccc(CN3CCN(C)CC3)cc2)cc1Nc1nccc(-c2cccnc2)n1 [IMATINIB]
viability at 4 h, 1 µM [1]: > 75% | viability at 4 h, 10 µM [2]: > 75% | viability at 4 h, 100 µM [3]: 75% | viability at 24 h, 1 µM [4]: > 75%
